## Antibody variant affinities, Ab-14 heavy chain, assay B

Source: Li et al. 2023 (doi:10.1038/s41467-023-39022-2), MIT Lincoln Laboratory and A-Alpha Bio; data file from the FLAb repository.

Antigen: PDVDLGDISGINAS, a 14-residue peptide of the SARS-CoV-2 spike HR2 region.

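Phage display of a naive human antibody library on the peptide gave the parent. These sequences belong to a second round, designed from the earlier measurements on random variants of the parent. Several design methods are mixed in this list. The scFvs were displayed on barcoded MATa yeast, the peptide on MATalpha yeast. Mating (16 h, 30 °C) was followed by selection of diploids and sequencing of their barcodes. The ratio of observed to expected reads was calibrated, replicate by replicate, on BCL2-family standards whose Kd was known from biolayer interferometry. There are six technical replicates.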

The variants keep the light chain, the linker and the frameworks of Ab-14 (scFv order VH, three GGGGS repeats, VL).
VH: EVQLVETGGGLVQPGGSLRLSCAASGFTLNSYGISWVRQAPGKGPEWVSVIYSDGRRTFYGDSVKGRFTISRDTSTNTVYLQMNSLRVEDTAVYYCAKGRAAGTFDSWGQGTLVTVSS
VL: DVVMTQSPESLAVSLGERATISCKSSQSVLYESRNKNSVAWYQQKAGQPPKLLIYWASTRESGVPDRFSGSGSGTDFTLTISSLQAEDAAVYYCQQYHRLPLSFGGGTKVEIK

Substitutions are numbered in sequence along the VH above, starting at 1 (not Kabat). This list holds designs with at most six substitutions. Each Kd is an estimate from the mating assay, the geometric mean of the replicates in which the pair was seen; lower is stronger. "no signal" means that the variant was in the library but no mating with the target was seen in any replicate; the authors take this as a sign of poor binding, and no number exists.

For S31D+G61T+D106E, the assay gave 88 nM (4 of 6 replicates; controls 0 of 18). With G26H+T28E+A101T the result was no signal (0 of 6 replicates; controls 0 of 18). For K65W, the assay gave no signal (0 of 6 replicates; controls 0 of 18). The variant N30Y+S31D+R56C+F59Q+G61S gave no signal (0 of 6 replicates; controls 0 of 18). The variant T28N+G61D+R100Q+A101N gave 14 nM (6 of 6 replicates; controls 0 of 18). The variant T28I+G61D+R100Q+A101T gave 58 nM (5 of 6 replicates; controls 0 of 18). For N30L+S53A, the assay gave 66 nM (1 of 6 replicates; controls 0 of 18).

The variant T28S+S31T+G61A+R100E gave 4.4 nM (6 of 6 replicates; controls 0 of 18). With T28E+R56K+A101T+S107A the result was 1.8 nM (6 of 6 replicates; controls 0 of 18). With S31D+A101T+D106W the result was 270 nM (1 of 6 replicates; controls 0 of 18). For G26M+R56K+A101T+S107T, the assay gave 51 nM (1 of 6 replicates; controls 0 of 18). For N30Q+G99H+S107E, the assay gave no signal (0 of 6 replicates; controls 0 of 18). The variant V64Y showed 39 nM (1 of 6 replicates; controls 0 of 18). With T28D+S31E+S53A+G61V+R100T+S107Q the result was 320 pM (6 of 6 replicates; controls 0 of 18).

The variant T28E+G61S+R100A gave 3.0 nM (6 of 6 replicates; controls 0 of 18). The variant T28D+G61Q+R100N showed 12 nM (6 of 6 replicates; controls 0 of 18). For T28S+A101T+S107G, the assay gave 1.0 µM (1 of 6 replicates; controls 0 of 18). The variant Y32D+G61D+V64G+R100Q+A101L gave no signal (0 of 6 replicates; controls 0 of 18). For S31E+A101F+D106S, the assay gave no signal (0 of 6 replicates; controls 0 of 18). For T28D+S31N+G61V+T104W+D106N, the assay gave 1.4 nM (6 of 6 replicates; controls 0 of 18). The variant T28N+G61L+S63R+R100N gave 110 nM (4 of 6 replicates; controls 0 of 18).

With T28D+G61V+A101N+S107T the result was 1.2 nM (6 of 6 replicates; controls 0 of 18). The variant G61L+R100D gave no signal (0 of 6 replicates; controls 0 of 18). For T28Q+G61Q+R100K, the assay gave 110 nM (5 of 6 replicates; controls 1 of 18). For N30E+A101E+S107T, the assay gave 790 pM (6 of 6 replicates; controls 0 of 18). The variant G26K+T28S+S31N+S53A+A101T showed 3.2 nM (5 of 6 replicates; controls 0 of 18). With G26K+T28G+S31E+A101C the result was 2.2 nM (5 of 6 replicates; controls 0 of 18). With T28S+G61Q+R100M+A101L the result was 8.4 nM (6 of 6 replicates; controls 0 of 18).

With T28E+R100T+A101T+S107Q the result was 870 pM (6 of 6 replicates; controls 0 of 18). For S31Q+Y32H+D54C+G61S+T104F, the assay gave no signal (0 of 6 replicates; controls 0 of 18).

Excerpt, the first 2 entries:

| changes | Kd | replicates with signal | empty controls |
|---|---|---|---|
| S31D+G61T+D106E | 88 nM | 4 of 6 | 0 of 18 |
| G26H+T28E+A101T | no signal | 0 of 6 | 0 of 18 |

The range of this assay differs from that of the first round, and the authors advise against merging the two. Background: pairings of all heavy chain designs with three empty control strains gave a value in 1% of cases (median 120 nM, 5th percentile 7.0 nM). Values in that range, when seen in few replicates, are hard to tell from nonspecific mating. For each scFv, signals with the empty controls are counted beside the result. The authors averaged sequences with at least three values out of six and counted those with two or fewer as poor binders.